Where two headings read alike, the source gives them in different places.
Experiments:
FGFR3 enzyme = FGFR3 enzyme (Homo sapiens (Human), UniProt P22607); test: FGFR Enzymatic Assay (FRET peptide phosphorylation), FGFR3; assay type: biochemical; details: pre-incubated for 4 hours
Method: (§1) The inhibitor potency of the exemplified compounds was measured in an enzyme assay that measures peptide phosphorylation using FRET measurements to detect product formation. Inhibitors were serially diluted in DMSO and a volume of 0.5 μL was transferred to the wells of a 384-well plate.
(§2) GraphPad prism3 was used to analyze the data.

By UniProt entry, the sequences of proteins in these tests, tags left out. Residues count along the entry.
UniProt P22607, 23-806: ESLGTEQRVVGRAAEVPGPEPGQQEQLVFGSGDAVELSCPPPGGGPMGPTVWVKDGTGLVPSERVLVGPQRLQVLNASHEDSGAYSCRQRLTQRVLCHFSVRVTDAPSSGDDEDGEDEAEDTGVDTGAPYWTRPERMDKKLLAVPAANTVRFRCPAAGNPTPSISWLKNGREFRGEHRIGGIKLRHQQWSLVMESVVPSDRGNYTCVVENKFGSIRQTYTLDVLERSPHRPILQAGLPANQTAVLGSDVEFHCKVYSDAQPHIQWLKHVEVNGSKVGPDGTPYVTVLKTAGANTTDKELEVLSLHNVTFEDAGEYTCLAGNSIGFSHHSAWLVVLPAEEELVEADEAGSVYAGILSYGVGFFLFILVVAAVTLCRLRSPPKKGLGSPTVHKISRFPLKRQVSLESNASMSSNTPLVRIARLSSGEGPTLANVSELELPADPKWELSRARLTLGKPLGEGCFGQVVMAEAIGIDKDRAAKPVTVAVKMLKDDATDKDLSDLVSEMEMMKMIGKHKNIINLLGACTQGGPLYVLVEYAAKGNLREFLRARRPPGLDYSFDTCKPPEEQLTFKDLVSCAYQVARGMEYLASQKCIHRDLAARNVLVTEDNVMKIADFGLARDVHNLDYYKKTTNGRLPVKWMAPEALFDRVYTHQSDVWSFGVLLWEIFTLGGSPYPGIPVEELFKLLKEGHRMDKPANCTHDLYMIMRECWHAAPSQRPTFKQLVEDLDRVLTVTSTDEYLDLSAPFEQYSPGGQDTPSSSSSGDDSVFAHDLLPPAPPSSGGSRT
UniProt P21802, 22-821: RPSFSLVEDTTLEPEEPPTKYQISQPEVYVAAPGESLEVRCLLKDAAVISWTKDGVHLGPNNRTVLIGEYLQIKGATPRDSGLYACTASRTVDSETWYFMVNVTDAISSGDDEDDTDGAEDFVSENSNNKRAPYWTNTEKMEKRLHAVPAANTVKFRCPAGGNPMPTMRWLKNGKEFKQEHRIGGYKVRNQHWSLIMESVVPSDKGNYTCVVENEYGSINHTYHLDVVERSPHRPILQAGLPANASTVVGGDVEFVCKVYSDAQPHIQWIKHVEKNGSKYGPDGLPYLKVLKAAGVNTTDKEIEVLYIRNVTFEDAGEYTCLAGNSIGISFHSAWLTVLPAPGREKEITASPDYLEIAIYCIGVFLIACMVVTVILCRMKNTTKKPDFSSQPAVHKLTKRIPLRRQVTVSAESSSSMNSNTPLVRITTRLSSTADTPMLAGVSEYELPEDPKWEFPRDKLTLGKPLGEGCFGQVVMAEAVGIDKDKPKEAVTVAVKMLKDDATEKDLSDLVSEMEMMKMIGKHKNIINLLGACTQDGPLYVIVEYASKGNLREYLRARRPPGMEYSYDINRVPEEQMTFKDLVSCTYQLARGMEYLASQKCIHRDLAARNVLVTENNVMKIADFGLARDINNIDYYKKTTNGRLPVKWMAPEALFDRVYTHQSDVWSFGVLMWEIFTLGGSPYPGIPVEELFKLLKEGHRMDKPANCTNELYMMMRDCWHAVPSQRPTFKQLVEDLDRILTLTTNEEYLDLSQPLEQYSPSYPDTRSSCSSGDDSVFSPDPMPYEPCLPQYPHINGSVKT
UniProt P11362, 22-822: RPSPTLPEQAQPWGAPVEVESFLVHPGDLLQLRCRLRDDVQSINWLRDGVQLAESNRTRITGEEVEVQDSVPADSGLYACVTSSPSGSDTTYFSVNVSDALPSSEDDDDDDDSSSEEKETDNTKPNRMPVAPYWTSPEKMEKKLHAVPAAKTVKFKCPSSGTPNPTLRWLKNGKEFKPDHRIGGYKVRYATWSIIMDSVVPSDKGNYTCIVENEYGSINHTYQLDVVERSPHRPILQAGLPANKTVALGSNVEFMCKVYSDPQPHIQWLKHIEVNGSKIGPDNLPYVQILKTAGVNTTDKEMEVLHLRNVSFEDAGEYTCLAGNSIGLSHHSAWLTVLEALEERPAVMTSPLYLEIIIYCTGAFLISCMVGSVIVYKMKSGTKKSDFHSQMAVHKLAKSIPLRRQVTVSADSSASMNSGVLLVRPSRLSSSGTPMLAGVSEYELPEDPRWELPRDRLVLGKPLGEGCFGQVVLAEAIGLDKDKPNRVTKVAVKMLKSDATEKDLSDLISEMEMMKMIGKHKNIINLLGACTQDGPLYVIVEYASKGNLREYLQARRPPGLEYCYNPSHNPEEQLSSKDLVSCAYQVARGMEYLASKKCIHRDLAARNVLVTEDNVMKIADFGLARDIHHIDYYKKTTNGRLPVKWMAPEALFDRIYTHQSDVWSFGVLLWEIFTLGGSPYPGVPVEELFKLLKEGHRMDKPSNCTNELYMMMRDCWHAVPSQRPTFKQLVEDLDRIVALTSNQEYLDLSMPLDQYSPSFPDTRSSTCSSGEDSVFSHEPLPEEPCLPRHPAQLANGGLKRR
UniProt P22455, 22-802: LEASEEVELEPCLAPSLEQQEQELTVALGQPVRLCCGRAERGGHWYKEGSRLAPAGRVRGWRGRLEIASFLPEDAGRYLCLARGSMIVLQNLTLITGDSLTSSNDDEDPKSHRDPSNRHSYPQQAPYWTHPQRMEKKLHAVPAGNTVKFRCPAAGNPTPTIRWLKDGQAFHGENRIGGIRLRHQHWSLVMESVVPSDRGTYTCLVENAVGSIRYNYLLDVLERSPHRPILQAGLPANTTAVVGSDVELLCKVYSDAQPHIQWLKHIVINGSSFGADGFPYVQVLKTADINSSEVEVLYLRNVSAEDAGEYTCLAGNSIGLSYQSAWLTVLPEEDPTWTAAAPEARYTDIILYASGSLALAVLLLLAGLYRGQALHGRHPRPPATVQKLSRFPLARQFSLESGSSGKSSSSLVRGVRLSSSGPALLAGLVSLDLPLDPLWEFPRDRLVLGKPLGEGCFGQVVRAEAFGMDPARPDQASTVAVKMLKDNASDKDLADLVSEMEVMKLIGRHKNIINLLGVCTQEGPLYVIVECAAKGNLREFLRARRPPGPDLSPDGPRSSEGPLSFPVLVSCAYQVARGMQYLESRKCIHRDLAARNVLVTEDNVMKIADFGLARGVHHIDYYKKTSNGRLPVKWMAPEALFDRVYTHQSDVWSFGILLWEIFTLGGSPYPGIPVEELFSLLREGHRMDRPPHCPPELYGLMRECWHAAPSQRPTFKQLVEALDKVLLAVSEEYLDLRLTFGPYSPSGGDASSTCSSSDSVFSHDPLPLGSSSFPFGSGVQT

FGFR2 = FGFR2 (Homo sapiens (Human), UniProt P21802); test: FGFR Enzymatic Assay (FRET peptide phosphorylation), FGFR2; assay type: biochemical; details: pre-incubated for 4 hours
Method: as §1
(§3) The enzymes were purchased from Millipore or Invitrogen.
as §2

FGFR1 = FGFR1 (Homo sapiens (Human), UniProt P11362); test: FGFR Enzymatic Assay (FRET peptide phosphorylation), FGFR1
FGFR4 = FGFR4 (Homo sapiens (Human), UniProt P22455); test: FGFR Enzymatic Assay (FRET peptide phosphorylation), FGFR4; assay type: biochemical; details: pre-incubated for 5 to 10 minutes
Method: as §1, §3, §2

[1] = FGFR1 IC50 (nM), pre-incubated for 5 to 10 minutes

Compound	IC50 (FGFR3 enzyme) [nM]	IC50 (FGFR1; [1]) [nM]	IC50 (FGFR4) [nM]	other results
CCN1C(=O)N(c2c(F)c(OC)cc(OC)c2F)Cc2cnc(-c3ccc(C(=O)NC)nc3)cc21 [Example 24, 5-(3-(2,6-difluoro-3,5-dimethoxyphenyl)-1-ethyl-2-oxo-1,2,3,4-tetrahydropyrido[4,3-d]pyrimidin-7-yl)-N-methylpicolinamide]	< 10			IC50 (FGFR2): < 10 nM
CCN1C(=O)N(c2cc(OC)cc(C(=O)NC)c2F)Cc2cnc(-c3ccc(C4(C#N)CCC4)nc3)cc21 [Example 28, 3-(7-(6-(1-cyanocyclobutyl)pyridin-3-yl)-1-ethyl-2-oxo-1,2-dihydropyrido[4,3-d]pyrimidin-3(4H)-yl)-2-fluoro-5-methoxy-N-methylbenzamide]				FGFR1/FGFR3 IC50 ratio (FGFR3 enzyme; FGFR3 selectivity): >10; FGFR4/FGFR3 IC50 ratio (FGFR3 enzyme; FGFR3 selectivity): >25
COc1cc(OC)c(F)c(N2Cc3cnc(-c4cn(C)nc4C)cc3N(Cc3cn(C)nc3C)C2=O)c1F [Example 101, 3-(2,6-difluoro-3,5-dimethoxyphenyl)-7-(1,3-dimethyl-1H-pyrazol-4-yl)-1-((1,3-dimethyl-1H-pyrazol-4-yl)methyl)-3,4-dihydropyrido[4,3-d]pyrimidin-2(1H)-one]				IC50 (FGFR1; read-out: FGFR1 IC50, pre-incubated for 4 hours): < 10 nM
COc1cc(OC)c(F)c(N2Cc3cnc(-c4cn(C)nc4C)cc3N(c3ccc4c(c3)C(=O)N(C)C4)C2=O)c1F [Example 120, 3-(2,6-difluoro-3,5-dimethoxyphenyl)-7-(1,3-dimethyl-1H-pyrazol-4-yl)-1-(2-methyl-3-oxoisoindolin-5-yl)-3,4-dihydropyrido[4,3-d]pyrimidin-2(1H)-one]		30 to 200	30 to 200	
COc1cc(OC)c(F)c(N2Cc3cnc(-c4ccn(C)n4)cc3N(c3ccc(C#N)cc3)C2=O)c1F [Example 142, 4-(3-(2,6-difluoro-3,5-dimethoxyphenyl)-7-(1-methyl-1H-pyrazol-3-yl)-2-oxo-3,4-dihydropyrido[4,3-d]pyrimidin-1(2H)-yl)benzonitrile]		30 to 200	30 to 200	
COc1cc(OC)c(F)c(N2Cc3cnc(-c4cnn(C)c4)cc3N(c3ccc(C#N)cc3)C2=O)c1F [Example 144, 4-(3-(2,6-difluoro-3,5-dimethoxyphenyl)-7-(1-methyl-1H-pyrazol-4-yl)-2-oxo-3,4-dihydropyrido[4,3-d]pyrimidin-1(2H)-yl)benzonitrile]		30 to 200	30 to 200	

Now from value to compound, other results behind:

IC50 (FGFR3 enzyme) [nM]	IC50 (FGFR1; [1]) [nM]	IC50 (FGFR4) [nM]	Compound	other results
10 to 30			COc1cc(OC)c(F)c(N2Cc3cnc(-c4cn(C)nc4C)cc3N(C)C2=O)c1F [Example 76, 3-(2,6-difluoro-3,5-dimethoxyphenyl)-7-(1,3-dimethyl-1H-pyrazol-4-yl)-1-methyl-3,4-dihydropyrido[4,3-d]pyrimidin-2(1H)-one]	
< 10			COc1cc(OC)c(F)c(N2Cc3cnc(-c4cn(C)nc4C)cc3N(Cc3cnco3)C2=O)c1F [Example 80, 3-(2,6-difluoro-3,5-dimethoxyphenyl)-7-(1,3-dimethyl-1H-pyrazol-4-yl)-1-(oxazol-5-ylmethyl)-3,4-dihydropyrido[4,3-d]pyrimidin-2(1H)-one]	

Source: US9708318B2, “Bicyclic heterocycles as FGFR4 inhibitors” (Incyte Corporation, priority 2015, dated 2017)
